From US12168802B2, “Methods of diagnosing and treating CD55 deficiency, hyperactivation of complement, angiopathic thrombosis and protein losing enteropathy (CHAPLE), a newly identified orphan disease” (The United States of America, as represented by the …, priority 2016, dated 2024)

Experiment: Clinical course of CHAPLE patients under replacement therapy
Format: in vivo, human
Conditions: albumin infusion, patients require ongoing treatment
Method: Study Participants. Three initial patients, their unaffected parents, and then seven additional patients presenting with a similar clinical presentation were evaluated (FIGS. 1A and 3). The patients were followed in Marmara University, Istanbul, Turkey; Cerraphasa University, Istanbul, Turkey; Baskent University, Ankara, Turkey; Gazi University, Ankara, Turkey, and Sami Ulus Hospital, Ankara, Turkey. All of the patients were enrolled in a clinical protocol which had been approved by the institutional review boards of the respective institutions and NIH. All study participants or their parents provided written informed consent.
Patient 1.1, a child born to consanguineous Turkish parents, presented with bloody diarrhea and vomiting, and continued with episodes throughout childhood. They were admitted to hospital with persistent diarrhea, pneumonia, and facial/extremity edema, for which they received antibiotics and albumin replacement therapy. […]
Patient 2.1, a person born to consanguineous Turkish parents, presented with fever, productive coughing and hemoptysis when they were diagnosed with pneumonia. […] When they were […] their serum immunoglobulins levels were determined due to suspected immunodeficiency. […] In order to assess the patient's capacity to produce specific antibodies, we evaluated isohemaglutinin titers and antibody response to pneumococcal vaccine, with normal results. […]

## albumin: albumin infusion / replacement therapy given to patients
  symptoms of CHAPLE patients: only a transient palliation
